This passage reports IC50 results from patent US20220274967A1, “BCAT MODULATION” (Icagen, LLC, priority 2019, published 2022).

Amino acid sequences for entries named in this document (tags omitted). Residues count along the entry.
UniProt P54687, whole entry: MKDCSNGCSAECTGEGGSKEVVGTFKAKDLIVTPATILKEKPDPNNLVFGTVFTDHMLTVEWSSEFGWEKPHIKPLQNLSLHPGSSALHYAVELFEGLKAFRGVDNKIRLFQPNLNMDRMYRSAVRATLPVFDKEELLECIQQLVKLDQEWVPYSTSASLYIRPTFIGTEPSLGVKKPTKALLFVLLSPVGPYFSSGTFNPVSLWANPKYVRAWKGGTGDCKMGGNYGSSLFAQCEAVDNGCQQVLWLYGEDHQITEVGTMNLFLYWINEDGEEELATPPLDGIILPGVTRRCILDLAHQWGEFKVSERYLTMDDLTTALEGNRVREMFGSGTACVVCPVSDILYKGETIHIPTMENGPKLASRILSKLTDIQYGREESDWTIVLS
UniProt O15382, 28-392 limits assumed: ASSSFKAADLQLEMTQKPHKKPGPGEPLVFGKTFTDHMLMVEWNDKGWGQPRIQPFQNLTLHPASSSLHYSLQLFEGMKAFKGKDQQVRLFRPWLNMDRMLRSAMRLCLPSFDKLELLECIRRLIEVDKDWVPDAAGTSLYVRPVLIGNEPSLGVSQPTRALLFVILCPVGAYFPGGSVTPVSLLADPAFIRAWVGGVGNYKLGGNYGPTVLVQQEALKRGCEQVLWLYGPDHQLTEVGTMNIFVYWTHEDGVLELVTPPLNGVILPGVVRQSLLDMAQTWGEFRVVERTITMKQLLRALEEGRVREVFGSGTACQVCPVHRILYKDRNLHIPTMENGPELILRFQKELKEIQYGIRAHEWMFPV

Assay [1] deals with BCAT1 (Homo sapiens, UniProt P54687). Kind of assay: BCAT1 enzyme inhibition (human), Glutamate Glo luminescence. As to conditions: read-out: BCAT1 ENZYME INHIBITION HUMAN IC50.
In assay [2] the target is BCAT2 (Homo sapiens, UniProt O15382). Kind of assay: BCAT2 enzyme inhibition (human). The assay is classed as biochemical. The conditions noted are these: read-out: BCAT2 ENZYME INHIBITION HUMAN IC50.
The test system of assay [3] is GM00371 cells. Kind of assay: Viability assay (Cell titer glo) in the 3-HIB assay. As to conditions: read-out: 3HIB INHIBITION IC50 (μM) MEAN GM00371 cells Viablility Assay, 24 hours.

As to `CNC(=O)c1ccc2c(c1)nc(-c1ccccn1)n2C1CCCN(C(=O)Nc2ccccc2Cl)C1` (stereo not drawn), the IC50 in assay [1] and in assay [2] was above 1 µM each time. In the case of `CNC(=O)c1ccc2c(c1)nc(-c1ccccn1)n2C1CCCN(C(=O)Cc2ccc(Cl)s2)C1` (stereo not drawn), the IC50 in assay [1] and in assay [2] was above 1 µM in each case. For the compound `COc1ccc(Nc2nc(N3CCCC3)c3ccccc3n2)cc1Cl`, the IC50 in assay [2] was above 1 µM.

`N#Cc1ccccc1-c1nc2cc(Cl)ncc2n1C1CCCC(NC(=O)c2ccc(Br)s2)C1` (stereo not drawn): the IC50 in assay [2] is below 0.1 µM; in assay [3] it was 0.5 to 1 µM. As for `CNC(=O)c1ccc2c(c1)nc(-c1ccccn1)n2C1CCCN(C(=O)Nc2ccccc2)C1` (stereo not drawn), the IC50 in assay [1] and in assay [2] was above 1 µM each time.
